This data set is classed as physicochemical. The settings on record: 10 mM PBS buffer (pH=7.4), 37° C., 100 rpm shaker; free drug by HPLC, average release per day. As to the method: The drug release and stability experiments were run using the test compounds. About 2.5±1.0 mg/mL (with regard to conjugate) solution of each test compound was prepared with 10 mM PBS buffer (pH=7.4) in Millipore Amicon® Ultra-0.5 ml 30 k Ultrafiltration centrifuge tube. The solution was kept swelling for 1 h at room temperature and then placed in a shaker at 100 rpm, 37° C. for continuous experiment. At the same time point of each day, samples were centrifuged at 10000 rpm for 1 h. The aliquot was transferred to HPLC vial for analysis. An 0.4 mL of 10 mM PBS buffer was added into the centrifuge tube and continue the experiment.
For the HPLC analysis at each time point, the peak areas of all relevant peaks from the chromatograms were retrieved and the concentration of free drug was calculated. Average release of free drug was calculated based on the sum of free drug and numbers of experiment days. The computing equation is as below.
The sample degradation rate was calculated based on the concentration and degree of substitution (NMR) for conjugated drug with regard to the initial starting point of the experiment (at t=0). The computing equation is as below.
Substance “Conjugate of HA and 2-((6αS,6βR,7S,8αS,8βS,11αR,12αS,12βS)-6β-fluoro-7-hydroxy-6α,8α,10,10-tetramethyl-4-oxo-1,2,4,6α,6β,7,8,8α,11α,12,12α,12β-dodecahydro-8βH-naphtho[2′,1′:4,5]indeno[1,2-d][1,3]dioxol-8β-yl)-2-oxoethyl 5-aminopentanoate [Example 18]” had a Release rate of 0.90 %/day.

Substance “Conjugate of HA and 2-((6αS,6βR,7S,8αS,8βS,11αR,12αS,12βS)-6β-fluoro-7-hydroxy-6α,8α,10,10-tetramethyl-4-oxo-1,2,4,6α,6β,7,8,8α,11α,12,12α,12β-dodecahydro-8βH-naphtho[2′,1′:4,5]indeno[1,2-d][1,3]dioxol-8β-yl)-2-oxoethyl 8-aminooctanoate [Example 9]” returned a Release rate of 0.22 %/day.

As to “Conjugate of HA and 2-((6αS,6βR,7S,8αS,8βS,11αR,12αS,12βS)-6β-fluoro-7-hydroxy-6α,8α,10,10-tetramethyl-4-oxo-1,2,4,6α,6β,7,8,8α,11α,12,12α,12β-dodecahydro-8βH-naphtho[2′,1′:4,5]indeno[1,2-d][1,3]dioxol-8β-yl)-2-oxoethyl 14-amino-3,6,9,12-tetraoxatetradecanoate [Example 50]”, the Release rate turned out to be 9.26 %/day.

With “Conjugate of HA and 2-((6αS,6βR,7S,8αS,8βS,11αR,12αS,12βS)-6β-fluoro-7-hydroxy-6α,8α,10,10-tetramethyl-4-oxo-1,2,4,6α,6β,7,8,8α,11α,12,12α,12β-dodecahydro-8βH-naphtho[2′,1′:4,5]indeno[1,2-d][1,3]dioxol-8β-yl)-2-oxoethyl (2-aminoethyl)carbamate [Example 14]”, the Release rate was 0.01 %/day.

“Conjugate of HA and 2-((6αS,6βR,7S,8αS,8βS,11αR,12αS,12βS)-6β-fluoro-7-hydroxy-6α,8α,10,10-tetramethyl-4-oxo-1,2,4,6α,6β,7,8,8α,11α,12,12α,12β-dodecahydro-8βH-naphtho[2′,1′:4,5]indeno[1,2-d][1,3]dioxol-8β-yl)-2-oxoethyl (7-azaspiro[3.5]nonan-2-yl) carbonate [Example 31]” showed a Release rate of 1.10 %/day.

With “Conjugate of HA and 2-((6αS,6βR,7S,8αS,8βS,11αR,12αS,12βS)-6β-fluoro-7-hydroxy-6α,8α,10,10-tetramethyl-4-oxo-1,2,4,6α,6β,7,8,8α,11α,12,12α,12β-dodecahydro-8βH-naphtho[2′,1′:4,5]indeno[1,2-d][1,3]dioxol-8β-yl)-2-oxoethyl alaninate [Example 8]”, the Release rate was 2.00 %/day.

As for “Conjugate of HA and 2-((6αS,6βR,7S,8αS,8βS,11αR,12αS,12βS)-6β-fluoro-7-hydroxy-6α,8α,10,10-tetramethyl-4-oxo-1,2,4,6α,6β,7,8,8α,11α,12,12α,12β-dodecahydro-8βH-naphtho[2′,1′:4,5]indeno[1,2-d][1,3]dioxol-8β-yl)-2-oxoethyl azetidine-3-carboxylate [Example 7]”, the Release rate is 14.25 %/day.

For “Conjugate of HA and 2-((6αS,6βR,7S,8αS,8βS,11αR,12αS,12βS)-6β-fluoro-7-hydroxy-6α,8α,10,10-tetramethyl-4-oxo-1,2,4,6α,6β,7,8,8α,11α,12,12α,12β-dodecahydro-8βH-naphtho[2′,1′:4,5]indeno[1,2-d][1,3]dioxol-8β-yl)-2-oxoethyl glycinate [Example 1]”, the Release rate was 14.04 %/day.

“Conjugate of HA and 2-((6αS,6βR,7S,8αS,8βS,11αR,12αS,12βS)-6β-fluoro-7-hydroxy-6α,8α,10,10-tetramethyl-4-oxo-1,2,4,6α,6β,7,8,8α,11α,12,12α,12β-dodecahydro-8βH-naphtho[2′,1′:4,5]indeno[1,2-d][1,3]dioxol-8β-yl)-2-oxoethyl piperidine-4-carboxylate [Example 10]”: the Release rate came to 0.83 %/day.

With “Conjugate of HA and 2-((6αS,6βR,7S,8αS,8βS,11αR,12αS,12βS)-6β-fluoro-7-hydroxy-6α,8α,10,10-tetramethyl-4-oxo-1,2,4,6α,6β,7,8,8α,11α,12,12α,12β-dodecahydro-8βH-naphtho[2′,1′:4,5]indeno[1,2-d][1,3]dioxol-8β-yl)-2-oxoethyl pyrrolidin-3-yl carbonate [Example 16]”, the Release rate stood at 1.46 %/day.

On to “Conjugate of HA and 2-((6αS,6βR,7S,8αS,8βS,11αR,12αS,12βS)-6β-fluoro-7-hydroxy-6α,8α,10,10-tetramethyl-4-oxo-1,2,4,6α,6β,7,8,8α,11α,12,12α,12β-dodecahydro-8βH-naphtho[2′,1′:4,5]indeno[1,2-d][1,3]dioxol-8β-yl)-2-oxoethyl pyrrolidine-3-carboxylate [Example 6]”, for which the Release rate turned out to be 2.34 %/day.

With “Conjugate of HA and 2-((6αS,6βR,7S,8αS,8βS,11αR,12αS,12βS)-6β-fluoro-7-hydroxy-6α,8α,10,10-tetramethyl-4-oxo-1,2,4,6α,6β,7,8,8α,11α,12,12α,12βb-dodecahydro-8βH-naphtho[2′,1′:4,5]indeno[1,2-d][1,3]dioxol-8β-yl)-2-oxoethyl 3-aminocyclobutane-1-carboxylate [Example 11]”, the Release rate is 3.53 %/day.

The substance “Conjugate of HA and 2-((8S,9S,10R,13S,14S,17R)-17-hydroxy-10,13-dimethyl-3,11-dioxo-6,7,8,9,10,11,12,13,14,15,16,17-dodecahydro-3H-cyclopenta[a]phenanthren-17-yl)-2-oxoethyl 4-aminobutanoate [Example 34]” returned a Release rate of 3.01 %/day.

Substance “Conjugate of HA and 2-aminoethyl (2-((6αS,6βR,7S,8αS,8βS,11αR,12αS,12βS)-6β-fluoro-7-hydroxy-6α,8α,10,10-tetramethyl-4-oxo-1,2,4,6α,6β,7,8,8α,11α,12,12α,12β-dodecahydro-8βH-naphtho[2′,1′:4,5]indeno[1,2-d][1,3]dioxol-8β-yl)-2-oxoethyl) carbonate [Example 17]” yielded a Release rate of 2.19 %/day.

“Conjugate of HA and 4-(2-aminoethyl)phenyl (2-((6αS,6βR,7S,8αS,8βS,11αR,12αS,12βS)-6β-fluoro-7-hydroxy-6α,8α,10,10-tetramethyl-4-oxo-1,2,4,6α,6β,7,8,8α,11α,12,12α,12β-dodecahydro-8βH-naphtho[2′,1′:4,5]indeno[1,2-d][1,3]dioxol-8β-yl)-2-oxoethyl) carbonate [Example 29]” gave a Release rate of 23.90 %/day.

Substance “Conjugate of HA and 4-(aminomethyl)benzyl (2-((6αS,6βR,7S,8αS,8βS,11αR,12αS,12βS)-6β-fluoro-7-hydroxy-6α,8α,10,10-tetramethyl-4-oxo-1,2,4,6α,6β,7,8,8α,11α,12,12α,12β-dodecahydro-8βH-naphtho[2′,1′:4,5]indeno[1,2-d][1,3]dioxol-8β-yl)-2-oxoethyl) carbonate [Example 15]” gave a Release rate of 0.97 %/day.

“Conjugate of HA and 4-aminobutyl (2-((6αS,6βR,7S,8αS,8βS,11αR,12αS,12βS)-6β-fluoro-7-hydroxy-6α,8α,10,10-tetramethyl-4-oxo-1,2,4,6α,6β,7,8,8α,11α,12,12α,12β-dodecahydro-8βH-naphtho[2′,1′:4,5]indeno[1,2-d][1,3]dioxol-8β-yl)-2-oxoethyl) carbonate [Example 3]” came in with a Release rate of 0.25 %/day.

Take “Conjugate of HA and 5-aminopentyl (2-((2S,6αS,6βR,7S,8αS,8βS,11αR,12αS,12βS)-2,6β-difluoro-7-hydroxy-6α,8α,10,10-tetramethyl-4-oxo-1,2,4,6α,6β,7,8,8α,11α,12,12α,12β-dodecahydro-8βH-naphtho[2′,1′:4,5]indeno[1,2-d][1,3]dioxol-8β-yl)-2-oxoethyl) carbonate [Example 25]”: the Release rate stood at 1.69 %/day.

In turn, “Conjugate of HA and 5-aminopentyl (2-((8S,9R,10S,11S,13S,14S,16S,17R)-9-fluoro-11,17-dihydroxy-10,13,16-trimethyl-3-oxo-6,7,8,9,10,11,12,13,14,15,16,17-dodecahydro-3H-cyclopenta[a]phenanthren-17-yl)-2-oxoethyl) carbonate [Example 88]” had a Release rate of 3.19 %/day.

Substance “Conjugate of HA and 6-aminohexyl (2-((2S,6αS,6βR,7S,8αS,8βS,11αR,12αS,12βS)-2,6β-difluoro-7-hydroxy-6α,8α,10,10-tetramethyl-4-oxo-1,2,4,6α,6β,7,8,8α,11α,12,12α,12β-dodecahydro-8βH-naphtho[2′,1′:4,5]indeno[1,2-d][1,3]dioxol-8β-yl)-2-oxoethyl) carbonate [Example 26]” came in with a Release rate of 0.63 %/day.

Turning to “Conjugate of HA and 6-aminohexyl (2-((6αS,6βR,7S,8αS,8βS,11αR,12αS,12βS)-6β-fluoro-7-hydroxy-6α,8α,10,10-tetramethyl-4-oxo-1,2,4,6α,6β,7,8,8α,11α,12,12α,12β-dodecahydro-8βH-naphtho[2′,1′:4,5]indeno[1,2-d][1,3]dioxol-8β-yl)-2-oxoethyl) carbonate [Example 27]”, the Release rate is given as 0.34 %/day.

“Conjugate of HA and (1S,2S)-2-aminocyclohexyl (2-((6αS,6βR,7S,8αS,8βS,11αR,12αS,12βS)-6β-fluoro-7-hydroxy-6α,8α,10,10-tetramethyl-4-oxo-1,2,4,6α,6β,7,8,8α,11α,12,12α,12β-dodecahydro-8βH-naphtho[2′,1′:4,5]indeno[1,2-d][1,3]dioxol-8β-yl)-2-oxoethyl) carbonate [Example 30]” had a Release rate of 0.94 %/day.

(Values after US20240398963A1 (priority 2021, published 2024).)
